This is an account of results in publication PMC6468375, “p53 Phosphomimetics Preserve Transient Secondary Structure but Reduce Binding to Mdm2 and MdmX” (Biomolecules, 2019).

By UniProt entry, the sequences of proteins in these tests, tags left out. Residues count along the entry.
UniProt P45481, 586-672: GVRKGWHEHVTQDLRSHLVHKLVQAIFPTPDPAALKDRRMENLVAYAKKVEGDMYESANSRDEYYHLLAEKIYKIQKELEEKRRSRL

The assay addresses T1, kinase-inducible domain interacting domain (KIX) of CREB binding protein (CBP), residues 586-672 (UniProt P45481, in part).
T1 construct: the limits 586-672 are those commonly used for the KIX domain of mouse CBP (surmise); The paragraph on its purification speaks of 'p53' from the elution onward, so the cleavage of the His tag from KIX is not sure; also called CBP/KIX; KIX (586-672); source: E. coli BL21 (DE3), purified (Ni-NTA, Superdex 75); not shown: His7, N-terminal, cleaved
The experiment in a line: ITC; p53 constructs in the syringe (50-500 uM), KIX in the cell (5-50 uM); 25 °C; 50 mM Tris, 50 mM NaCl, pH 7.0; single-site model; triplicate. The note with it: both partners purified. (Isothermal titration calorimetry measures the heat released or taken up as one component is titrated into another.)

B1: p53 transactivation domain, wild type (p53TAD) (domain or fragment)
chain: not shown
notes: The limits […] are printed for the mutants; also called p53TAD WT; p53TAD wild type; source: E. coli BL21 (DE3), purified (Ni-NTA, thrombin cleavage, Ni-NTA, Superdex 75); not shown: His7, N-terminal, cleaved
As for B1, the affinity, expressed as Kd, was 11 µM and the dH was determined as 2.61 kcal/mol.

Broadly, the Kd is the concentration at which binding is half-saturated. Read a low Kd as tighter binding.
